Common to all, as to format: cell-based
What all share (parameters): scale not given: the % may be the effect or the level left

Amino acid sequences for entries named in this document (tags omitted). A change or cut given only in a name is not applied to a line headed by its entry.
UniProt Q99572: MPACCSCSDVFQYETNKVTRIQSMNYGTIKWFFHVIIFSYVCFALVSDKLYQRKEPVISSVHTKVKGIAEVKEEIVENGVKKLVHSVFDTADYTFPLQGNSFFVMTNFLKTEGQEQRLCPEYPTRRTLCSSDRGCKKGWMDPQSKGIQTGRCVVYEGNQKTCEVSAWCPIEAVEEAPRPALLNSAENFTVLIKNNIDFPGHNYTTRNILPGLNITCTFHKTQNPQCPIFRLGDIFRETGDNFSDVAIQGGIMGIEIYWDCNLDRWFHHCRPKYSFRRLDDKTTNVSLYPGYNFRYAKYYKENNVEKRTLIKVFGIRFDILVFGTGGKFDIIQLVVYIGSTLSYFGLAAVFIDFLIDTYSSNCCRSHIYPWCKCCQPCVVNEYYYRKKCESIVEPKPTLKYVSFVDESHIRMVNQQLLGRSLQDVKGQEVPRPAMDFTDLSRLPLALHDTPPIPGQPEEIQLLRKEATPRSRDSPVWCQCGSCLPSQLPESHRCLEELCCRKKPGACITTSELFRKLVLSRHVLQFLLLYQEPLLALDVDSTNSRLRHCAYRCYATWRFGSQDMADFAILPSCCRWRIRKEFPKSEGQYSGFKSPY
UniProt Q93086: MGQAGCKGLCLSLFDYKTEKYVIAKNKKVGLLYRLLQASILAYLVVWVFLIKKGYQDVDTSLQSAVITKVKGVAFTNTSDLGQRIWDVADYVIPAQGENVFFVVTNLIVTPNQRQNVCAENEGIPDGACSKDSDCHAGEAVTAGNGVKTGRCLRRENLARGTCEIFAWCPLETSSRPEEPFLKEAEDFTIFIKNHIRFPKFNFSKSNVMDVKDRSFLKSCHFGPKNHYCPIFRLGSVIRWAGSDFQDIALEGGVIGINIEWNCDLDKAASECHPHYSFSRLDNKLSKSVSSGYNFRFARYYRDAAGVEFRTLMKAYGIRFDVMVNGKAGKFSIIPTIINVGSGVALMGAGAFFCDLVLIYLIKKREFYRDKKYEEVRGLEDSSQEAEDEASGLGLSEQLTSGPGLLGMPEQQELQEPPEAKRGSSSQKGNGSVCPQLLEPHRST

Test [1] concerns the target T1, P2X purinoceptor 4 (Homo sapiens) (UniProt Q99571).
T1 sequence (whole entry): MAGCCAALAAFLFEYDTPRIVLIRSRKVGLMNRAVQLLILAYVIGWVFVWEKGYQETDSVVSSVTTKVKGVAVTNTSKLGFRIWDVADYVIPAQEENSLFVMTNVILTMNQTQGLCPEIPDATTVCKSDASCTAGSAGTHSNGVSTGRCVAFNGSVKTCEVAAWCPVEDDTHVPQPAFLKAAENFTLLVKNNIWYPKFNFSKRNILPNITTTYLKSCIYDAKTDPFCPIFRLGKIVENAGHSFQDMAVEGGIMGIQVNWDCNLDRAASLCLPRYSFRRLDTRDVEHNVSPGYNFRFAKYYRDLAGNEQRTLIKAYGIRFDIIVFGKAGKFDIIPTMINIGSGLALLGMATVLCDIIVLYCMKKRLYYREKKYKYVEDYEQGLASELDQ
As to the kind of experiment: Antagonist activity against human P2X4R stably transfected in human 1321N1 cells at 50 uM incubated for 30 mins by Fura-2 AM staining based calcium influx assay relative to control.

The next test deals with P2X purinoceptor 7 (Homo sapiens, UniProt Q99572). Description: Antagonist activity against human P2X7R stably transfected in human 1321N1 cells at 50 uM incubated for 30 mins by Fura-2 AM staining based calcium influx assay relative to control.
A further test addresses P2X purinoceptor 5 (Homo sapiens, UniProt Q93086). As to the kind of experiment: Antagonist activity against human P2X5R stably transfected in human 1321N1 cells at 50 uM incubated for 30 mins by Fura-2 AM staining based calcium influx assay relative to control.

The source of these data is ChEMBL document CHEMBL5137039, “Therapeutic potentials and structure-activity relationship of 1,3-benzodioxole N-carbamothioyl carboxamide derivatives as selective and potent antagonists of P2X4 and P2X7 receptors” (Eur J Med Chem, 2022).

In the case of `O=C(NC(=S)Nc1cccc(O)c1)c1ccc2c(c1)OCO2`, the values for the Activity (in test [1]; at P2X purinoceptor 7 (filed as antagonist); on P2X purinoceptor 5) were 32%, 42% and 28%, respectively.

Consider `O=C(NC(=S)Nc1ccccc1O)c1ccc2c(c1)OCO2`, for which the Activity at P2X purinoceptor 7 stood at 30%; on P2X purinoceptor 5, 32%.
